The test system of experiment [1] is Human pulmonary artery epithelial cells (HPAEC). Put plainly: HPAEC apoptosis induced by serum withdrawal (flow cytometry Annexin V, TUNEL). Type of experiment: cell-based. Conditions: pretreatment 100-200 ng/ml for 2 hours; flow cytometry and TUNEL assay. As for the experimental part:
(§1) The inventors investigated the effect of BMPR2 signaling on pulmonary endothelial cell proliferation and survival. Human pulmonary artery […] cells (HPAEC) were grown in EBM-2 medium supplemented with 2% FBS and growth factors (Clonetics). Apoptosis was induced either by serum withdrawal (see FIG. 17) or exposure of cells to TNFα. Cells were pretreated with BMP-2 or BMP-7 (100-200 ng/ml) for 2 hours and grown in the presence or absence serum or TNF (10-20 ng/ml) for 24-48 hours. Apoptosis was evaluated by three independent methods: 1) flow cytometry using Annexin V, a Ca2+ dependent phospholipid-binding protein with affinity for phosphatidylserine (PS; translocation of PS from the inner leaflet of plasma membrane to the outer layer occurs during the early stage of apoptosis), 2) TUNEL assay and, 3) caspase activity assay.

Experiment [2] relates to Human pulmonary artery cells (HPAEC). In words: HPAEC apoptosis induced by TNF (caspase activity assay). Type of experiment: cell-based. Conditions: pretreatment 100-200 ng/ml for 2 hours, TNF 10-20 ng/ml. How it is done:
as §1

B1: BMP2: bone morphogenetic protein (protein, UniProt P12643 283-396, looked up)
Bone morphogenetic protein 2: QAKHKQRKRLKSSCKRHPLYVDFSDVGWNDWIVAPPGYHAFYCHGECPFPLADHLNSTNHAIVQTLVNSVNSKIPKACCVPTELSAISMLYLDENEKVVLKNYQDMVVEGCGCR
Take B1: the “apoptosis induced by serum withdrawal” value in experiment [1] is reported as “protected the cells from apoptosis”. In addition, the “apoptosis induced by TNF treatment” value in experiment [2] is recorded as “protect the cells from apoptosis”.

Values taken from patent publication US20080194491A1, “Methods of Diagnosing, Preventing, and Treating Early Onset of Pulmonary Hypertension” (priority 2002, published 2008).
